The species entered for one assay is Mus musculus. Briefly: Selectivity ratio of Ki for CB1 receptor in CD1 mouse brain membrane without cerebellum to Ki for CB2 receptor in CD1 mouse spleen membrane. It is filed as cell membranes.
Another assay has as its target Cannabinoid receptor 1 (Mus musculus, UniProt P47746). Briefly: Displacement of [3H]CP55940 from CB1 receptor in CD1 mouse brain membrane without cerebellum by liquid scintillation counting analysis. It is filed as cell membranes.

Protein sequences, listed by entry. Tags and fused reporters are not part of them.
UniProt P47746, whole entry: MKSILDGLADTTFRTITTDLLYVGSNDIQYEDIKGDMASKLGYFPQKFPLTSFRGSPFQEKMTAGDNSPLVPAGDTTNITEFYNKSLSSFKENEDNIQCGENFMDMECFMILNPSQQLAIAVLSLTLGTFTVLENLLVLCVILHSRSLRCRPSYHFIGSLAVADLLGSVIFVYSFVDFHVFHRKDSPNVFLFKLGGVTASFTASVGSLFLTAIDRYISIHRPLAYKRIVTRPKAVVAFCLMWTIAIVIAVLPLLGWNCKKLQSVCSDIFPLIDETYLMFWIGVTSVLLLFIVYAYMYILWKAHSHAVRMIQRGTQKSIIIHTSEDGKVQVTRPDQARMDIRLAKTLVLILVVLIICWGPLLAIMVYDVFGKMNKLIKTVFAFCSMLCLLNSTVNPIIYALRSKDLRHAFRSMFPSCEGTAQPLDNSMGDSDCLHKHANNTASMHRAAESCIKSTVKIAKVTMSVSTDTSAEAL

What is called Ki is a dissociation constant, usually derived from enzyme kinetics or from competition with a known ligand. For `Cc1c(C(O)CC2CCCCC2)nn(-c2ccc(Cl)cc2Cl)c1-c1ccc(Cl)cc1` (racemic), the Ratio Ki in the assay listed under Mus musculus came out at 0.042. Besides, the Ki at Cannabinoid receptor 1 amounted to 175 nM.

The values above are taken from ChEMBL document CHEMBL2331495, “Novel pyrazole derivatives as neutral CB₁ antagonists with significant activity towards food intake” (Eur J Med Chem, 2013).
